Test results reported in BindingDB's records for doi:10.1007/bf00168557 (Boehringer Ingelheim Italia, 1995).

Chains of the proteins cited; added tags and fusions are not shown.
UniProt P18090, whole entry: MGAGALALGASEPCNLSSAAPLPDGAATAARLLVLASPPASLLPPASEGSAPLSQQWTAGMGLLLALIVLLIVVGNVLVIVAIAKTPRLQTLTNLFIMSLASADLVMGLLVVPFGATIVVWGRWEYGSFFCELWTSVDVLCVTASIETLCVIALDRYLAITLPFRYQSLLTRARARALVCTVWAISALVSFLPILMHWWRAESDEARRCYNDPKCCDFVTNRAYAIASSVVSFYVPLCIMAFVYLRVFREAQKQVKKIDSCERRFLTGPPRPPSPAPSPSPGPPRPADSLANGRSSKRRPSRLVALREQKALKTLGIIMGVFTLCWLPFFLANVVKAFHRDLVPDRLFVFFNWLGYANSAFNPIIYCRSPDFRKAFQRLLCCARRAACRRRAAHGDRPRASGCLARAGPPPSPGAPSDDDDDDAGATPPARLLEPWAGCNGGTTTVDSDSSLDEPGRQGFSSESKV
UniProt P31390, whole entry: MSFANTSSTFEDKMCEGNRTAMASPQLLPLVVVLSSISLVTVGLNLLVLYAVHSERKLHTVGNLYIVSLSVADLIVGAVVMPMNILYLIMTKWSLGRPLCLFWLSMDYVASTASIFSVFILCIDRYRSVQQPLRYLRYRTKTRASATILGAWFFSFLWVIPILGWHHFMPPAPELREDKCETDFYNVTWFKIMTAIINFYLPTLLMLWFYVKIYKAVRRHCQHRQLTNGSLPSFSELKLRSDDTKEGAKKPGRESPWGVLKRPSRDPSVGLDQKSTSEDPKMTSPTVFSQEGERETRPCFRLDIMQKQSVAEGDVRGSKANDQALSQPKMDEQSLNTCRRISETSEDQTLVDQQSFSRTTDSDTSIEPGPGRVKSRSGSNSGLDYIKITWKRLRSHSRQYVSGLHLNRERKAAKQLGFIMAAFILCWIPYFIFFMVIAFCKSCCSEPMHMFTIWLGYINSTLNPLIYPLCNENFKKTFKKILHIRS
UniProt P19327, whole entry: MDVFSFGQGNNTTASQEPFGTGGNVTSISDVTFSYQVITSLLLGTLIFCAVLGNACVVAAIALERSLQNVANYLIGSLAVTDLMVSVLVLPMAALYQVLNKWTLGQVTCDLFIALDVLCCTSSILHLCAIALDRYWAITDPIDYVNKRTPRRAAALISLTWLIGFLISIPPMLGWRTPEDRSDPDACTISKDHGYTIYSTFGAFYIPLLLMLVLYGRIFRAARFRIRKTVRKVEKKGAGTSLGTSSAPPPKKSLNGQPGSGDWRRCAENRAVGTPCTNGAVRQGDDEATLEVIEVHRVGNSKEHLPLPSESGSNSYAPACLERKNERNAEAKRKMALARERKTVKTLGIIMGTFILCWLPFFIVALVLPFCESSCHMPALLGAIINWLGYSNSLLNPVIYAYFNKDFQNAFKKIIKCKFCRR

Legend:
[1] = molecular target: Beta-1 adrenergic receptor (Rattus norvegicus, UniProt P18090)
Histamine H1 receptor = Histamine H1 receptor (Rattus norvegicus, UniProt P31390)
[2] = molecular target: 5-hydroxytryptamine receptor 1A (Rattus norvegicus, UniProt P19327)

C=CCc1ccccc1OC[C@@H](O)CNC(C)C [ALPRENOLOL,(-)]
Ki [1]: 1.1 nM

CC(CN1c2ccccc2Sc2ccccc21)N(C)C (stereo not drawn) [N,N,alpha-trimethyl-10H-phenothiazine-10-ethanamine]
Ki (Histamine H1 receptor): 4 nM

NCCc1c[nH]c2ccc(O)cc12 [[3H]-5-HT]
Ki [2]: 4.2 nM
